Laboratory results reported in ChEMBL document CHEMBL1128444 (J Med Chem, 1995).

Amino acid sequences for entries named in this document (tags omitted).
UniProt Q9WTR4, whole entry: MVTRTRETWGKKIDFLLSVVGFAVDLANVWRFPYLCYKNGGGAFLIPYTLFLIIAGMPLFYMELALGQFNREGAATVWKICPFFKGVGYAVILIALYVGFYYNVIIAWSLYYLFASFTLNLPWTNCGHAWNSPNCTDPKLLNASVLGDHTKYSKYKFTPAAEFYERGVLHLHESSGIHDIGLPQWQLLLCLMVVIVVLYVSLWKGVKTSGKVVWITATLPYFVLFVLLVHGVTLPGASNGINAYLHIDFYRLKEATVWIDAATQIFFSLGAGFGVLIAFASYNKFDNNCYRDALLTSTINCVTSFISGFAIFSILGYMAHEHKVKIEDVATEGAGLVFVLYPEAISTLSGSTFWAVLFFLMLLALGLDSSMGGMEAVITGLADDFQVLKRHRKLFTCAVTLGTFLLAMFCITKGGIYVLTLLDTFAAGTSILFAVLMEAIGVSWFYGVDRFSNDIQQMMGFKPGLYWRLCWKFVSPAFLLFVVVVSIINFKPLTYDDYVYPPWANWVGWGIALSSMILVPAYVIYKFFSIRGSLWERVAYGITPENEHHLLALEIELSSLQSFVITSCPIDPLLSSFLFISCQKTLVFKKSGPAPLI
UniProt P23977, whole entry: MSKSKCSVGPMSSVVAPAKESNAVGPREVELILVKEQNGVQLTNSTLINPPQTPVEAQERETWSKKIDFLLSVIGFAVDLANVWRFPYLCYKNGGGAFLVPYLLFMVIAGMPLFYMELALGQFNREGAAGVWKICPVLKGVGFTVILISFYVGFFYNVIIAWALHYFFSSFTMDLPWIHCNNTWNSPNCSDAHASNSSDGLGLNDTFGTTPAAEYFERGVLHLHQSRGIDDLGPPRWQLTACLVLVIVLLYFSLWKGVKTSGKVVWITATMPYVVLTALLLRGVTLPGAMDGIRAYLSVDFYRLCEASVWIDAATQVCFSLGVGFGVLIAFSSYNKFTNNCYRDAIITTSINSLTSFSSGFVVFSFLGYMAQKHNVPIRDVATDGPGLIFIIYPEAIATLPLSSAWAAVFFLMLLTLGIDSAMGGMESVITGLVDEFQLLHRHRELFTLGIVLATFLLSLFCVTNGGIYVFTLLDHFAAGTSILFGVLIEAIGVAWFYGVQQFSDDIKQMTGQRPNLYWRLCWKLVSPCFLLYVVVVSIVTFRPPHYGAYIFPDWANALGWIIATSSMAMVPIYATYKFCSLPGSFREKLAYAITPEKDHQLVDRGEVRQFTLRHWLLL

Columns and labels:
[1] = target: Norepinephrine transporter (Rattus norvegicus, UniProt Q9WTR4); test: Inhibition of [3H]NE uptake by rat frontal cortex Norepinephrine transporter; type: tissue-based
Method in brief: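 Rat frontal cortex synaptosomes were used at 10 mg/mL tissue with 5 nM final [3H]norepinephrine and 10 μM pargyline in Krebs phosphate buffer, pH 7.4. Incubation was 3 min at 30 °C, followed by filtration and scintillation counting. Nonspecific uptake was defined with 1 μM desipramine. Three or four experiments were run in triplicate, and Ki was derived by Cheng–Prusoff.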

[2] = target: Sodium-dependent dopamine transporter (Rattus norvegicus, UniProt P23977); test: Binding affinity at the Dopamine transporter in rat striata by inhibition of 0.5 nM [3H]WIN-35428 binding

COC(=O)[C@H]1[C@@H](OC(=O)c2ccccc2)C[C@@H]2CC[C@H]1N2C [COCAINE]
Ki [1]: 161 nM

COC(=O)C1C(c2ccc(Cl)cc2)CC2CCC1N2C (configuration not stated)
IC50 [2]: 1.12 nM
